In the supplement of paper PMC13380429:

Tests used:
Settings in all cases: 72 h
Caco-2 [1] = assay: cell viability relative to DMSO; higher = less toxic
Calu-3 [2] = assay: as above
HepG2 [3] = assay: as above
U2OS [4] = assay: as above
Vero E6 [5] = assay: as above
Caco-2 [6] = assay: relative viability EC50 (midpoint between 100% and the lowest measured viability); higher = less toxic
Calu-3 [7] = assay: as above
HepG2 [8] = assay: as above
U2OS [9] = assay: as above
Vero E6 [10] = assay: as above
Caco-2 [11] = assay: drug sensitivity score (DSS) for viability; higher = more toxic; extreme values may be limits of the assay
Calu-3 [12] = assay: as above
HepG2 [13] = assay: as above
U2OS [14] = assay: as above
Vero E6 [15] = assay: as above

C[C@@H](N)C(=O)N[C@@H](CO)C(=O)N[C@H](C(=O)N[C@H](C(=O)N[C@H](C(=O)N[C@@H](CC(N)=O)C(=O)N[C@@H](Cc1ccc(O)cc1)C(=O)N[C@H](C(N)=O)[C@@H](C)O)[C@@H](C)O)[C@@H](C)O)[C@@H](C)O [adaptavir]
cell viability [%]
Settings	Caco-2 [1]	Calu-3 [2]	HepG2 [3]	U2OS [4]	Vero E6 [5]
1 nM	99.6	106	98.4	94.6	107
10 nM	105	86.2	93.1	101	98.5
100 nM	102	91.8	98.7	94.4	103
1000 nM	90.1	106	91.5	97.4	102
10000 nM	102	99.1	97.3	102	97.4

Settings	drug sensitivity score	relative viability EC50 [µM]
Caco-2 [6]	–	> 10
Caco-2 [11]	0	–
Calu-3 [7]	–	> 10
Calu-3 [12]	0	–
HepG2 [8]	–	> 10
HepG2 [13]	0	–
U2OS [9]	–	> 10
U2OS [14]	0	–
Vero E6 [10]	–	> 10
Vero E6 [15]	0	–
